From patent publication US8741944B2, “Anti-infective agents against intracellular pathogens” (priority 2007, dated 2014)

Sequences of proteins named here, by UniProt entry; tags and fusion partners are left off. A change or cut given only in a name is not applied to a line headed by its entry.
UniProt O15530: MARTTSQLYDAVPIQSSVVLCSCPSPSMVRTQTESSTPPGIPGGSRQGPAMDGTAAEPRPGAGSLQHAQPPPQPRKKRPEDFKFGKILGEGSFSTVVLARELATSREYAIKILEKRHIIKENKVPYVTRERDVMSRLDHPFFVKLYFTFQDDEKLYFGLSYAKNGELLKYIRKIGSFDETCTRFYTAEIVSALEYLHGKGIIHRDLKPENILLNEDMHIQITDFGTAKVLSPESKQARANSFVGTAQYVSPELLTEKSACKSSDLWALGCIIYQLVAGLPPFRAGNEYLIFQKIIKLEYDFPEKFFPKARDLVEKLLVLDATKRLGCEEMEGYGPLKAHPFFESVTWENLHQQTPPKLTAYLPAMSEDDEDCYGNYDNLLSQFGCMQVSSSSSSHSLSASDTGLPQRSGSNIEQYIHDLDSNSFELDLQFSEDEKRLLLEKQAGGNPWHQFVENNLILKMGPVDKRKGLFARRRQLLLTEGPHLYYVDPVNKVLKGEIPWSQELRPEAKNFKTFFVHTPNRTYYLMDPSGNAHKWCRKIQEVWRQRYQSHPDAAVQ

Target: recombinant PDK-1 (Homo sapiens (Human), UniProt O15530)
Assay: PDK-1 kinase activity (PDK-1 kinase assay kit, cell-free)
Assay type: biochemical
Conditions: inhibiting recombinant PDK-1 kinase activity
Experimental: PDK-1 kinase activity This in vitro assay was performed using a PDK-1 kinase assay kit (Upstate, Lake Placid, N.Y.) according to the vendor's instructions. This cell-free assay is based on the ability of recombinant PDK-1, in the presence of DMSO vehicle or the test agent, to activate its downstream kinase serum- and glucocorticoid-regulated kinase (SGK.) which, in turn, phosphorylates the Akt/SGK-specific peptide substrate RPRAATF with [γ-^32]-ATP. […] The reported values represent the means of two independent determinations.

“4-[5-(4′-methyl[1,1′-biphenyl]4-yl)-3-(trifluoromethyl)-1H-1-yl]benzenesulfonamide [Compound 50]” showed an IC50 of 15 µM.
